Patent US20110009343A1, “MODULATORS OF AMYLOID AGGREGATION” (Praecis Pharmaceuticals, Inc., priority 1995, published 2011)

The chains behind the UniProt entries cited, without tags or fusion partners. Residues count along the entry.
UniProt P05067, 672-711: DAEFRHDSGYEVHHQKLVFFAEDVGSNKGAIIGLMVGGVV

How the values were obtained:
Aβ1-40 = molecular target: T1, Aβ1-40 (Homo sapiens, UniProt P05067); assay: Nucleation assay (turbidity, A405 nm); format: biochemical; details: Table II; 100 mole % vs 50 μM Aβ1-40;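 note: synthetic Aβ monomer polymerization followed by turbidity in 96-well plates with continuous shaking, read every 15 minutes over 5 hours, compared against wells lacking test compound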
T1 construct: (β-AP1-40) was obtained commercially from Bachem (Torrance, Calif.); purchased Bachem (Torrance, Calif.)

Aβ(1-40) peptide = molecular target: T2, Aβ(1-40) peptide (Homo sapiens, UniProt P05067); assay: Seeded static assay (SSA), Thioflavin-T fluorescence; format: biochemical; details: inhibitor tested at 100 μM and 10 μM
T2 construct: (β-AP1-40) was obtained commercially from Bachem (Torrance, Calif.); purchased Bachem (Torrance, Calif.)

Row | Structure (SMILES) | Fold Increase in Lag Time (Aβ1-40) [fold] | Effect in Seeded Static Assay (Aβ(1-40) peptide)
1 | CC(C)C[C@H](NC(=O)[C@H](CCCCN)NC(=O)c1ccc2c(c1)C(=O)OC21c2ccc(O)cc2Oc2cc(O)ccc21)C(=O)N[C@H](C(=O)N[C@@H](Cc1ccccc1)C(=O)N[C@@H](Cc1ccccc1)C(=O)N[C@@H](C)C(=O)N[C@@H](CCC(=O)O)C(=O)N[C@@H](CC(=O)O)C(=O)N[C@H](C(=O)NCC(=O)N[C@@H](CO)C(=O)N[C@@H](CC(N)=O)C(=O)N[C@@H](CCCCN)C(=O)NCC(=O)N[C@@H](C)C(=O)O)C(C)C)C(C)C [PPI-278] | 1.6 | 
2 | CC(C)C[C@H](NC(=O)[C@H](CCCCN)NC(=O)[C@H](CCC(N)=O)NC(=O)[C@H](Cc1c[nH]cn1)NC(=O)[C@H](Cc1c[nH]cn1)NC(=O)[C@@H](NC(=O)[C@H](CCC(=O)O)NC(=O)[C@H](Cc1ccc(O)cc1)NC(=O)CNC(=O)[C@H](CO)NC(=O)[C@H](CC(=O)O)NC(=O)[C@H](Cc1c[nH]cn1)NC(=O)c1ccc2c(c1)C(=O)OC21c2ccc(O)cc2Oc2cc(O)ccc21)C(C)C)C(=O)N[C@H](C(=O)N[C@@H](Cc1ccccc1)C(=O)N[C@@H](Cc1ccccc1)C(=O)O)C(C)C [PPI-268] | 1.9 | 
3 | CC[C@H](C)[C@H](NC(=O)[C@H](C)NC(=O)CNC(=O)[C@H](CCCCN)NC(=O)[C@H](CC(N)=O)NC(=O)[C@H](CO)NC(=O)CNC(=O)[C@@H](NC(=O)[C@H](CC(=O)O)NC(=O)[C@H](CCC(=O)O)NC(=O)[C@H](C)NC(=O)c1ccc2c(c1)C(=O)OC21c2ccc(O)cc2Oc2cc(O)ccc21)C(C)C)C(=O)N[C@H](C(=O)NCC(=O)N[C@@H](CC(C)C)C(=O)N[C@@H](CCSC)C(=O)O)[C@@H](C)CC [PPI-283] | 1.2 | 
4 | CC[C@H](C)[C@H](NC(=O)[C@H](C)NC(=O)CNC(=O)[C@H](CCCCN)NC(=O)[C@H](CC(N)=O)NC(=O)[C@H](CO)NC(=O)CNC(=O)[C@@H](NC(=O)[C@H](CC(=O)O)NC(=O)[C@H](CCC(=O)O)NC(=O)[C@H](C)NC(=O)[C@H](Cc1ccccc1)NC(=O)[C@H](Cc1ccccc1)NC(=O)[C@@H](NC(=O)[C@H](CC(C)C)NC(=O)[C@H](CCCCN)NC(=O)[C@H](CCC(N)=O)NC(=O)[C@H](CCC(N)=O)NC(=O)[C@H](Cc1c[nH]cn1)NC(=O)[C@H](Cc1c[nH]cn1)NC(=O)[C@H](Cc1c[nH]cn1)NC(=O)[C@H](Cc1c[nH]cn1)NC(=O)[C@@H](NC(=O)[C@@H](NC(=O)[C@H](CCC(=O)O)NC(=O)[C@@H](N)CCC(=O)O)C(C)C)C(C)C)C(C)C)C(C)C)C(=O)N[C@H](C(=O)NCC(=O)N[C@@H](CC(C)C)C(=O)N[C@@H](CCSC)C(=O)N[C@H](C(=O)NCC(=O)NCC(=O)N[C@H](C(=O)N[C@H](C(=O)O)C(C)C)C(C)C)C(C)C)[C@@H](C)CC [PPI-220] |  | ++ (A strong inhibitor of aggregation. The rate of aggregation in the presence of the inhibitor was decreased compared to the control by at least 30-50%)
